Results reported in patent US6106866A, “In vivo agents comprising cationic drugs, peptides and metal chelators with acidic saccharides and glycosaminoglycans, giving improved site-selective localization, uptake mechanism, sensitivity and kinetic-spatial profiles, including tumor sites” (Access Pharmaceuticals, Inc., priority 1995, dated 2000).

Assay: Binding of active to dermatan sulfate carrier (dialysis retention, 500 MW cutoff)
Conditions: ca. 60:40 (active to dermatan sulfate)
Experimental: Multiple batches of Ferrioxamine:Dermatan Sulfate Agent have been prepared.
Vincristine (Sigma Chemical Co., St. Louis) is dissolved in water and mixed with dermatan sulfate at ratios of between 90:10 and 30:70 (w/w) drug to dermatan sulfate.
Amikacin, gentamicin and tobramycin (all obtained from Sigma Chemical Co., St. Louis) are dissolved in water and mixed with either dermatan sulfate (435 Type) or beef lung heparin (Hepar-Kabi-Pharmacia) at ratios of between 90:10 and 30:70 (w/w) drug to glycosaminoglycan.

With poly-L-lysine the “paired-ion binding of peptide to dermatan sulfate” value was “Strong paired-ion binding”.
